# Results from paper PMC12280212.
# Sequences of proteins named here, by UniProt entry; tags and fusion partners are left off. A change or cut given only in a name is not applied to a line headed by its entry.
# UniProt P31949: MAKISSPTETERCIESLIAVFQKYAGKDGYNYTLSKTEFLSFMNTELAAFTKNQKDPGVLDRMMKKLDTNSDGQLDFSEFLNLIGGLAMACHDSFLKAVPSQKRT
# UniProt P16070: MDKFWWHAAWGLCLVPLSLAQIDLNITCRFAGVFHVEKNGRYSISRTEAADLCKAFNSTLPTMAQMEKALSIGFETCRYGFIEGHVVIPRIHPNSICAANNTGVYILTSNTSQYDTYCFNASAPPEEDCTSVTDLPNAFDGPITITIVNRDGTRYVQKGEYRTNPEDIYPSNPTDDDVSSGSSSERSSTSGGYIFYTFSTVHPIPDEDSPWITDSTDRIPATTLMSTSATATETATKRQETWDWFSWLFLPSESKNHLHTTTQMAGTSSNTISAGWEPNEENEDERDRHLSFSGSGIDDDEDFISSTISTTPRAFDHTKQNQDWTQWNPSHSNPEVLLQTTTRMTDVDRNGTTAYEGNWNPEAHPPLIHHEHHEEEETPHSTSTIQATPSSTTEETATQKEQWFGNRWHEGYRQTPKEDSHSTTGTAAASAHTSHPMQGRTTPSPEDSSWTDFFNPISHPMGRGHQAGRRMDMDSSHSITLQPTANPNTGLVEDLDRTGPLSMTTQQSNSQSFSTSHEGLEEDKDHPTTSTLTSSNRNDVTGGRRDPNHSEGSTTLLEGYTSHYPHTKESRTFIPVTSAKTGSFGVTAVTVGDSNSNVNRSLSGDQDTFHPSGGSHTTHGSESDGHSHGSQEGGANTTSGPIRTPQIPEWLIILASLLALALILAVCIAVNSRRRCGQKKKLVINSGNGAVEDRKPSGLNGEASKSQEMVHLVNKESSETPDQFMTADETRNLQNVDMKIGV
# Columns and labels:
# Protein S100-A11 = Protein S100-A11 (UniProt P31949); assay: cross-link between two proteins; cross-linking mass spectrometry
# CD44 antigen = CD44 antigen (UniProt P16070); assay: cross-link between two proteins; affinity purification or IP with mass spectrometry; cross-linking mass spectrometry
substance,measurement,setting,value
"Annexin A2, P07355",listed as a hit,Protein S100-A11,yes
same,listed as a hit,CD44 antigen,yes
